The target in the experiment is CCR8 (Homo sapiens, UniProt P51685). The experiment in a line: Tango assay (Tango-CCR8-Gal4-CHO-K1 cells, CCL1-stimulated, ONE-Glo luminescence).

Chains of the proteins cited; added tags and fusions are not shown.
UniProt P51685, whole entry: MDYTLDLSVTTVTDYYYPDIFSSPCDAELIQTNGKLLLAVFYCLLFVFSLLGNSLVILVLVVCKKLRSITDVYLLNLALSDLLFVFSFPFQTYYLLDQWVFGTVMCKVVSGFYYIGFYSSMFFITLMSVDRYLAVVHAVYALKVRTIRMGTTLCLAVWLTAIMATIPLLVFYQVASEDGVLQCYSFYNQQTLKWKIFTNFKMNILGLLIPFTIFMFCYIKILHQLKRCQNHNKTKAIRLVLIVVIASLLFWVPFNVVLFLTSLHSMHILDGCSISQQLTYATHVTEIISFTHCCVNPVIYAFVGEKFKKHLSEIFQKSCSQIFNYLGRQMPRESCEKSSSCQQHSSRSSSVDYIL

`Cc1cc(S(=O)(=O)N[C@H](C)C2CCN(C)CC2)ccc1NC(=O)c1cccc(Cl)c1C` [Compound 286, (R)-3-chloro-2-methyl-N-(2-methyl-4-(N-(1-(1-methylpiperidin-4-yl)ethyl)sulfamoyl)phenyl)benzamide] showed an IC50 of 1 nM.

Source of the values: patent US12552753B2, “Methods and compositions for targeting Tregs using CCR8 inhibitors” (Nanjing Immunophage Biomedical Co., Ltd., priority 2020, dated 2026).
